Stoichiometry N data for 1 substance are collected here from PMC6524963.

For orientation: stoichiometry N means a count of units in the complex or per binding partner.

The target of this experiment is mRanBP1 (GST tag cleaved) (mouse) (UniProt P34022). Briefly: SEC; RanBP1, RanGTP and CRM1 from yeast or animals mixed at 2:5:1 molar ratio (RanGTP in excess); SDS-PAGE of the peaks. A general note: Size exclusion chromatography separates by hydrodynamic size, large species first.

Turning to “human RanGTP (human Ran^L182A) (from UniProt P62826 1-216) (natural protein)”, the stoichiometry N turned out to be 2.05.
